# Apparent affinities of Ab-14 variants for a coronavirus HR2 peptide

Reference: Li et al. 2023, doi:10.1038/s41467-023-39022-2. File: FLAb, binding data.

Binding partner: SARS-CoV-2 spike HR2 peptide, sequence PDVDLGDISGINAS.

Ab-14 is the parent antibody, in scFv form: VH, then a 15-residue (Gly4Ser)3 linker, then VL. The heavy chain is unchanged in all variants.
VH: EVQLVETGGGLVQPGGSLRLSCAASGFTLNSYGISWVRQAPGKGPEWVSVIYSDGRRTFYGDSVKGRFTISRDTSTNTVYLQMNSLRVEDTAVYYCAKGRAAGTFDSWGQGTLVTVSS
VL: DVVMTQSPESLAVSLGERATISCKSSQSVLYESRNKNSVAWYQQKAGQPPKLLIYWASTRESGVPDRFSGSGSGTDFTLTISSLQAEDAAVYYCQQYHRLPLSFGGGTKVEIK

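The starting antibody came from a phage panning campaign against this peptide. These sequences belong to a second round, designed from the earlier measurements on random variants of the parent. Their group label is 14L_GP_Gibbs (GP: Gaussian process model; Gibbs: Gibbs sampling; a sequence that several methods proposed may carry one label only). The assay is AlphaSeq: two haploid yeast populations carry antibody and antigen on their surface. Binding brings cells together so that they mate, and sequencing counts the barcode pairs among the diploids. A regression on co-assayed BCL2-family reference pairs converts the normalised counts of each replicate to an apparent Kd. Mating was done six times.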

The parent's light chain CDRs are KSSQSVLYESRNKNSVA, WASTRES, QQYHRLPLS; each variant's own CDRs replace them letter for letter.
Values are log10 of the apparent Kd in nM; lower means stronger binding.
Averages over replicates are reported, and they cover detected replicates only.
"nd" means that the variant was in the library but no mating with the target was seen in that replicate; the authors take this as a sign of poor binding, and no number exists.
The range of this assay differs from that of the first round, and the authors advise against merging the two.

CDR-L1,CDR-L2,CDR-L3,log10 Kd (nM) by replicate,"mean, log10 nM",empty controls
KVPGSNDYESRNKNSVA,HASTRES,QDYHRLPLS,0.49 / 0.34 / 0.17 / 0.18 / -0.02 / 0.14,0.22,0 of 18
KLQQGMDYESRNDASVA,EASTRES,QQYHRLPLS,1.04 / 1.44 / 1.23 / 0.84 / 0.69 / 0.75,1.00,0 of 18
KLSESFLYESRWKNSVA,DASTREE,QQYHRLPLS,-0.16 / -0.18 / -0.27 / -0.48 / -0.42 / -0.03,-0.26,1 of 18 (3.17)
KISQSWLYESRNSNSVA,EASTREL,QDYHRLPLS,0.33 / 0.04 / 0.12 / -0.01 / 0.21 / 0.07,0.13,3 of 18 (2.71)
KLPQSMNYESRNKNNVA,SASCRES,QQYHRLPLS,-0.05 / -0.17 / -0.31 / -0.41 / -0.12 / 0.07,-0.16,0 of 18
KFQQSQLYESRNMNSVA,NASKRMS,QQYHRLPLK,0.85 / 0.70 / 0.48 / 0.56 / 0.82 / 0.70,0.69,0 of 18
KLSESFLYESRWKNSVA,DASTRLE,QQYHRLPLS,-0.04 / 0.07 / -0.41 / -0.14 / -0.12 / -0.07,-0.11,0 of 18
KLSTSWGYEKRNKNSVA,QASQRES,QQYHRLPLS,0.11 / 0.20 / 0.17 / 0.14 / 0.19 / 0.27,0.18,1 of 18 (2.95)
KVDQDDLYENRNKNSVA,QGSTRES,QQYHRLPLH,nd / 0.19 / 0.59 / 0.39 / 1.26 / 0.10,0.51,0 of 18
KISQSWLYESRNSNSVA,EASTRED,QDYHRLPLS,-0.13 / -0.14 / -0.22 / -0.29 / 0.00 / 0.06,-0.12,0 of 18
KLSQSFLYESRNSNNVA,MASTRMV,QQYHRLPLS,-0.09 / -0.19 / -0.39 / -0.29 / -0.33 / 0.09,-0.20,2 of 18 (3.90)
KVEQSNPYESRNAQSVA,NASQRES,QQYHRLPLS,-0.02 / 0.04 / -0.17 / -0.15 / -0.14 / -0.09,-0.09,0 of 18
KLSQSWEYLSRNSNAVA,NASQRLQ,QQYHRLPLS,0.41 / 0.22 / 0.22 / 0.28 / 0.12 / 0.67,0.32,1 of 18 (2.52)
KLSQSWMGESRNKNSVA,QASTREQ,QQYHRLPLS,-0.12 / -0.30 / -0.29 / -0.38 / -0.36 / -0.07,-0.25,2 of 18 (2.21)
KVPQSNLYESRNANSVA,NASTRLS,QQYHRLPLS,0.18 / -0.21 / -0.11 / -0.36 / -0.16 / 0.12,-0.09,1 of 18 (2.88)
KVQQSFLYESRNKMSVA,NASTREE,QQYHRLPLS,0.46 / 0.38 / 0.16 / -0.06 / -0.05 / 0.26,0.19,0 of 18
KSMQSVDGESRNKNSVA,SAQTREE,QQYHRLPLS,-0.05 / 0.00 / 0.15 / -0.04 / -0.12 / 0.31,0.04,0 of 18
KLQMMVEMEQRNPNSVA,SASTRLS,QQYHRLPLS,0.16 / -0.07 / 0.08 / -0.29 / -0.12 / 0.01,-0.04,1 of 18 (1.68)
KLSQSMLYESRNVNSVA,SASTRES,QQYHRLPLM,0.42 / -0.21 / -0.11 / -0.24 / -0.20 / 0.11,-0.04,0 of 18
KLQMSELPESRNKNSVA,WASLREM,QQYHRLPLS,1.71 / 1.46 / 1.53 / 2.15 / 1.31 / 2.15,1.72,1 of 18 (2.05)
KLLWSVLLWSRNWNSVA,NASTREL,QQYHRLPLS,nd / 1.56 / 1.49 / 3.21 / 2.09 / 1.82,2.03,1 of 18 (4.13)
KLPQKWLYESRNKNNVA,SASCREQ,QQYHRLPLS,0.32 / 0.18 / 0.13 / 0.19 / 0.46 / 0.19,0.25,0 of 18
KFQQWWLYESRMQNNVA,NASLRES,QQYHRLPLS,0.27 / 0.03 / 0.19 / 0.12 / -0.10 / -0.02,0.08,1 of 18 (2.40)
KLMQSPWYESRWKNSVA,NASQREE,QQYHRLPLS,0.47 / 0.22 / 0.42 / 0.31 / 0.23 / 0.26,0.32,1 of 18 (2.51)
KVSMLDDGGSRNKNSVA,HAHTRES,QQYHRLPLS,0.37 / 0.27 / 0.45 / 0.12 / 0.98 / 0.64,0.47,1 of 18 (2.40)
KLQGSHLYESRNKNSVA,HASQRES,QCYHRLPLS,0.73 / 0.68 / 0.67 / 0.83 / 0.76 / 0.89,0.76,1 of 18 (2.75)
KVSQSDPYESPNKNSVA,NASTRMQ,QQYHRLPLS,1.17 / 0.78 / 0.58 / 1.01 / 1.88 / 1.74,1.19,0 of 18
KAPQSMWYESRNQNSVA,SASTRSQ,QQYHRLPLS,0.16 / -0.19 / 0.10 / 0.44 / -0.09 / 0.49,0.15,0 of 18
KSQMSEGYEQRNKNSVA,EASTRCD,QQYHRLPLS,0.13 / -0.12 / -0.02 / -0.14 / 0.10 / -0.02,-0.01,1 of 18 (3.49)
KLEGSNLYESRNGNSVA,NASTRES,QQYHRLPLS,0.13 / -0.28 / -0.27 / -0.41 / -0.27 / -0.28,-0.23,4 of 18 (2.98)
KSGQSFLQESRNKNSVA,GASMRES,QQYHRLPLS,0.09 / -0.02 / 0.18 / 0.02 / -0.10 / 0.31,0.08,0 of 18

Top 2 of the variants detected in all replicates, tightest first:

CDR-L1,CDR-L2,CDR-L3,log10 Kd (nM) by replicate,"mean, log10 nM",empty controls
KLSESFLYESRWKNSVA,DASTREE,QQYHRLPLS,-0.16 / -0.18 / -0.27 / -0.48 / -0.42 / -0.03,-0.26,1 of 18 (3.17)
KLSQSWMGESRNKNSVA,QASTREQ,QQYHRLPLS,-0.12 / -0.30 / -0.29 / -0.38 / -0.36 / -0.07,-0.25,2 of 18 (2.21)

In the paper, a design with two or fewer of six values counts as a poor binder.
Nonspecific signal, from three strains lacking the peptide, appeared in 4% of pairings of all light chain designs, centred on 2.64 (5% of these signals below 1.59); values are not corrected for it. The control count says in how many pairings with the empty strains this scFv gave a signal, with their mean in brackets.